# In ChEMBL document CHEMBL4428134, “Discovery of AZD2716: A Novel Secreted Phospholipase A2 (sPLA2) Inhibitor for the Treatment of Coronary Artery Disease” (ACS Med Chem Lett, 2016):
# Assays:
# [1] = biological target: T1, Group 10 secretory phospholipase A2 (Homo sapiens, UniProt O15496); test: Inhibition of recombinant sPLA2-10 (unknown origin) using 1-palmitoyl-2-oleoyl-sn-glycero-3-phosphocholine as substrate preincubated for 10 mins followed by substrate addition measured after 60 mins by colorimetric method
# T1 sequence (O15496 whole entry): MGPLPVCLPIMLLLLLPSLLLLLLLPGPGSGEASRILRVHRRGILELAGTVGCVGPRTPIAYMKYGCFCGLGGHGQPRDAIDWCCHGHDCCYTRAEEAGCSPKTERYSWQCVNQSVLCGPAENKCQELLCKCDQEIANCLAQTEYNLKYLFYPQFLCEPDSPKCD
# [2] = biological target: T2, Phospholipase A2, membrane associated (Homo sapiens, UniProt P14555); test: Inhibition of recombinant sPLA2-2A (unknown origin) using 1-palmitoyl-2-oleoyl-sn-glycero-3-phosphocholine as substrate preincubated for 10 mins followed by substrate addition measured after 60 mins by colorimetric method
# T2 sequence (P14555 whole entry): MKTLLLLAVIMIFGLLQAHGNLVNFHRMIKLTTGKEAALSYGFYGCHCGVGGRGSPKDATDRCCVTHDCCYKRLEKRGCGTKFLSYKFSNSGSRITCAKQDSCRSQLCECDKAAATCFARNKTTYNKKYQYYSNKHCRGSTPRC
compound,measurement,setting,value
CCc1c(C(=O)C(N)=O)c2c(OCC(=O)O)cccc2n1Cc1ccccc1 [VARESPLADIB],IC50,[1],0.041 µM
same,IC50,[2],0.028 µM
